Assays:
EBP = EBP (Mus musculus, UniProt P70245); experiment: EBP enzymatic assay (GC/MS); format: biochemical; conditions: 10 μM, zymostenol 25 μM
OPCs = experiment: GC/MS-based sterol profiling in OPCs; format: cell-based, mouse; conditions: 24 h treatment (siRNA 96 h)

Sequences of proteins named here, by UniProt entry; tags and fusion partners are left off. A change or cut given only in a name is not applied to a line headed by its entry.
UniProt P70245: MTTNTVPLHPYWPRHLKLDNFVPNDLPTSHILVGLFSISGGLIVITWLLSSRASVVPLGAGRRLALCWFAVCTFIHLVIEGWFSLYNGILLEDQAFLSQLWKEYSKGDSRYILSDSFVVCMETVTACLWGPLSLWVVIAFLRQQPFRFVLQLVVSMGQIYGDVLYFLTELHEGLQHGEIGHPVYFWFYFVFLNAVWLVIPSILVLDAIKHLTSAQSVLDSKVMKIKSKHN

## Trans-U50488
EBP
  inhibition of EBP enzymatic activity: clear inhibition
OPCs
  sterol levels / sterol intermediate accumulation in OPCs: induced accumulation of zymostenol and zymosterol and decreased basal sterol levels

Reference: US12403104B2, “Compounds and methods of promoting myelination” (Case Western Reserve University, priority 2016, dated 2025)
